Source: patent publication US20040101900A1, “Assay for rapid detection of TNT” (published 2004)

How the values were obtained:
anti-TNT antibody A1.1.1 [1] = assay: microtiter plate-based homogeneous competitive fluoroimmunoassay, A1.1.1 antibody; conditions: plate-based homogeneous assay
[2] = storage stability of the fluorescent analog; conditions: stored in solution or kept at room temperature
anti-TNT antibody 11B3 = assay: microtiter plate-based homogeneous competitive fluoroimmunoassay, 11B3 antibody; conditions: plate-based homogeneous assay
anti-TNT antibody A1.1.1 [3] = assay: cuvette titration of anti-TNT antibody/Cy5-DAP-TNP complex formation; conditions: 5 nM Cy5-DAP-TNP, A1.1.1 added 0.36 nM to 6.54 nM, PBS, 22° C.
anti-TNT antibody A1.1.1 [4] = assay: plate-based homogenous cross reactivity assay in PBS; conditions: homogeneous format, calculated from the concentrations corresponding to half of the maximum signal, 7 to 5000 μg/L

Molecule | increase in fluorescence on addition of Cy5-DAP-TNP to antibody (anti-TNT antibody A1.1.1 [1]) | stability on storage [2] | increase in fluorescence on addition of Cy5-DAP-TNP to antibody (anti-TNT antibody 11B3) | increase in fluorescence intensity over the course of the titration (anti-TNT antibody A1.1.1 [3]) | Percent cross-reactivity (anti-TNT antibody A1.1.1 [4]) [%]
cyanine diaminopentane trinitrophenyl | about two-fold | prone to degradation | about two-fold | three-fold | –
Cc1c(N)cc([N+](=O)[O-])cc1[N+](=O)[O-] | – | – | – | – | 9
